In ChEMBL document CHEMBL3596180, “Evaluation of histone deacetylase inhibitors (HDACi) as therapeutic leads for human African trypanosomiasis (HAT)” (Bioorg Med Chem, 2015) one finds Ki data, which are given here for 1 compound.

This experiment deals with T1, Histone deacetylase 11 (Homo sapiens, UniProt Q96DB2).
T1 sequence (Q96DB2 whole entry): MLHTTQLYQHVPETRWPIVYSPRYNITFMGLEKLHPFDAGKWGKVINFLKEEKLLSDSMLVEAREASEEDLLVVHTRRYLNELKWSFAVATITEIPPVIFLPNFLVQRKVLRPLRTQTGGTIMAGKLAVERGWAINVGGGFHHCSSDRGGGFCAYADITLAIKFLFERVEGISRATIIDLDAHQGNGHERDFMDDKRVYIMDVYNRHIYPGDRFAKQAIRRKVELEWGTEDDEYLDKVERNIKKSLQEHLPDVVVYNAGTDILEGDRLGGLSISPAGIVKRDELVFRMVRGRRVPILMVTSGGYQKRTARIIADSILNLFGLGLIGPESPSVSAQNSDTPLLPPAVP
In words: Inhibition of human HDAC11.

pKi: −log10 of the molar value.

In the case of `O=C(CCCCCCC(=O)Nc1ccc([C@H]2O[C@@H](CSc3nc(-c4ccccc4)c(-c4ccccc4)o3)C[C@@H](c3ccc(CO)cc3)O2)cc1)NO` [TUBACIN], the pKi was 6.14.
